Measurements published in patent publication US20180186877A1, “METHOD FOR SUPPRESSING BLOOD COAGULATION REACTION FOR WHICH LOX-1 IS RESPONSIBLE” (NATIONAL CEREBRAL AND CARDIOVASCULAR CENTER, priority 2013, published 2018).

Target: Human Factor V (HCV-0100, Haematologic Technologies Inc.) (human) (UniProt P12259)
Assay: SPR (Biacore), FV immobilised on the chip, LOX-1 0-400 nM flowed; equilibrium (Req) analysis

Kd: 15.2 nM
Substance: Epitope-tagged recombinant LOX-1 protein (NM002543, aa 61-273, 6xHis; pcDNA4, Igk secretion signal; secreted by FreeStyle293 cells) (from UniProt P78380 61-273) (receptor)
